Reference: article PMC7723054
This is one part of the list.

T1: LIN28A (human?, UniProt Q9H9Z2 1-209)
T1 sequence: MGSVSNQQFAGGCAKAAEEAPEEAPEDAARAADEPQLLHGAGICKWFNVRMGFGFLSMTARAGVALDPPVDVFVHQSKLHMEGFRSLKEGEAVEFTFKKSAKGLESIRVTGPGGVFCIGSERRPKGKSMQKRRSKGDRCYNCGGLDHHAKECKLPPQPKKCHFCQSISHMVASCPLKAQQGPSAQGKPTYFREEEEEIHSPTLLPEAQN

T2: CIRBP (Homo sapiens, UniProt Q14011 1-172)
T2 sequence: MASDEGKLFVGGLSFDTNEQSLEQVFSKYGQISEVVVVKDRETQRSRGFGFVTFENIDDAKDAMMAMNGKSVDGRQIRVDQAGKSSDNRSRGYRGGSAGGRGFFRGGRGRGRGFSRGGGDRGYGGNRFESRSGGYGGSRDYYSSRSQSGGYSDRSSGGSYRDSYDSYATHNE

T3: DHX36 (Homo sapiens, UniProt Q9H2U1 1-1008)
T3 sequence: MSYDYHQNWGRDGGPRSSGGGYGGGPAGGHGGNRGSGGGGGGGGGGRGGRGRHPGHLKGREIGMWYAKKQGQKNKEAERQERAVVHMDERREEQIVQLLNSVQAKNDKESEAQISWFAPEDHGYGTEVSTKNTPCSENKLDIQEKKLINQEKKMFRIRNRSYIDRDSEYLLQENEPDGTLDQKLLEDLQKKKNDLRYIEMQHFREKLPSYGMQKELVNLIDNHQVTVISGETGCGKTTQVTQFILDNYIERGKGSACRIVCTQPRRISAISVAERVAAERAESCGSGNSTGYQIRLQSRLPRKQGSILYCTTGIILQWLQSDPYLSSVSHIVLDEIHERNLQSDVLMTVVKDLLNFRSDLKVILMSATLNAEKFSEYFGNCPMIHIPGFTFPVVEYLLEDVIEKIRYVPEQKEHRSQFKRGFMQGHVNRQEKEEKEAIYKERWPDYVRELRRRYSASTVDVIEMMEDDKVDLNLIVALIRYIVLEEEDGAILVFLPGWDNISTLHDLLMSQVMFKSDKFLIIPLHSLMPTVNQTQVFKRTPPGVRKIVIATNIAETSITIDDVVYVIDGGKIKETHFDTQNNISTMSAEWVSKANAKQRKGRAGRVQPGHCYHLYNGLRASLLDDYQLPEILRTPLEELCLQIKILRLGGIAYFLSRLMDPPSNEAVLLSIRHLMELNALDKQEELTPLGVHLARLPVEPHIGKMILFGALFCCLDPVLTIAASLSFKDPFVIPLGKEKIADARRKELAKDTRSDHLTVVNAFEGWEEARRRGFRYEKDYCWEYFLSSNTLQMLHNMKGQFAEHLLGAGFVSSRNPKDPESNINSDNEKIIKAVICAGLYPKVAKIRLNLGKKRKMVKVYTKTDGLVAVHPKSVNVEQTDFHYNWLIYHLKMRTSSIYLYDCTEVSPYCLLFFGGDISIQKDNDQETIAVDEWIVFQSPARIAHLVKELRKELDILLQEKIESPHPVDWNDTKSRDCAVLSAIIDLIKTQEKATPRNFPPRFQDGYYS


Tests used:
Test in all cases: FOREST: bead pull-down of RNA structure library v1, barcode microarray; U1A/LIN28A: 20 mM HEPES pH 7.5, 80 mM KCl, 20 mM NaCl, 10% glycerol, 2 mM DTT, 0.1 ug/uL BSA, 4 C; BG4/CIRBP/DHX36: 10 mM Tris-HCl pH 7.5, 100 mM KCl (or LiCl),; high values mean tight binding
U1A = U1A (Homo sapiens, UniProt P09012)
LIN28A = biological target: T1, LIN28A
CIRBP = biological target: T2, CIRBP
DHX36 = biological target: T3, DHX36

| Binder | binding signal (U1A) [z-score] | binding signal (LIN28A) [z-score] | binding signal (CIRBP) [z-score] | binding signal (DHX36) [z-score] |
| --- | --- | --- | --- | --- |
| hsa-mir-7641-1 (structured_RNA) RNA: GGGACGGCUUAGAAUGUAGCCUUGCAACGGUGUACGAAGUUUCAGCAAGCAGGGUUGGGCCUGGUUGCUGAAGCUUCGUGCAC | 0.0635 | -0.976 | -0.791 | -0.211 |
| hsa-mir-520c_520b_519c_519b (structured_RNA) RNA: GGGAAAGCUCUUUUGCAAACGCGGCAGAGGUGUACGAAGUUUCAGCCUUUCUGUUGUCUGAAAGAAAAGAAAGGCUGAAGCUUCGUGCAC | 0.0908 | -1.08 | 0.199 | -0.102 |
| hsa-mir-548ah (structured_RNA) RNA: GGGAAAGAUUUCCGCCGGUGCAUCACCAGGUGUACGAAGUUUCAGCUUUGCCAAUAAAAGUAAUGACAAAGCUGAAGCUUCGUGCAC | 0.0755 | -1.02 | -1.74 | -1.33 |
| hsa-mir-5583-1 (structured_RNA) RNA: GGGAAAUAUCAGGAGGAUAUGCGAUACGGGUGUACGAAGUUUCAGCAUUCUGGCUAGGUGAUCAUCAGAAUGCUGAAGCUUCGUGCAC | 0.088 | 1.32 | 0.91 | 0.889 |
| hsa-mir-7853 (structured_RNA) RNA: GGGAGCUGCGGGUACCAACCUAACAUCCGGUGUACGAAGUUUCAGCCUUCACUGGUGCAGUAAGAAGGCUGAAGCUUCGUGCAC | 0.0783 | -1.48 | -0.225 | -0.513 |
| hsa-mir-8085 (structured_RNA) RNA: GGGACCAGUCUGGGUGGAGGGUGUAGAAGGUGUACGAAGUUUCAGCAGGCAUGGGUGGCUGCUGAAGCUUCGUGCAC | 0.0858 | 0.207 | 0.502 | 0.432 |
| hsa-mir-4754 (structured_RNA) RNA: GGGAAACGAUCAGAAGUGUACAGGUUAUGGUGUACGAAGUUUCAGCGAGUGAGGCCCAGUGGUCACCGCCGCCCUCGCUGAAGCUUCGUGCAC | 0.0651 | 1.02 | 0.229 | 0.0103 |
| hsa-mir-4652 (structured_RNA) RNA: GGGAGAGUCACCAAGGGUAAGUCCAGAUGGUGUACGAAGUUUCAGCGAACUAACUAACCAGAACUAUUUUGUUCGCUGAAGCUUCGUGCAC | 0.0842 | 0.065 | 0.115 | 0.306 |
| hsa-mir-1285-1 (structured_RNA) RNA: GGGAAAUCACUAUCAUCAGCACAGGGAAGGUGUACGAAGUUUCAGCCAGGCUGGUCUCAAACUCCUGGUCUGGCUGAAGCUUCGUGCAC | 0.0686 | -0.167 | 0.381 | -0.49 |
| hsa-mir-8087 (structured_RNA) RNA: GGGAAGAUAGUAAGGGUUGAACGAGCCGGGUGUACGAAGUUUCAGCGGGGCCCUACUUUAAGGGCCCUGCUGAAGCUUCGUGCAC | 0.0677 | -0.247 | 1.21 | 0.432 |
| hsa-mir-198 (structured_RNA) RNA: GGGACAACAGCUGCGAAGGGACACAUUUGGUGUACGAAGUUUCAGCGUUCCUGUGAUUUUUCGCUGAAGCUUCGUGCAC | 0.0803 | 1.38 | -0.535 | 0.938 |
| hsa-mir-4314 (structured_RNA) RNA: GGGACGAGCCCAAUCUGGUUCAUAGUCAGGUGUACGAAGUUUCAGCACAGGUAGUGGCCACAGUGAGAAAGCUGGCCUGUCCUUCUGCGCUGAAGCUUCGUGCAC | 1.73 | 0.878 | 1.08 | 0.548 |
| hsa-mir-5188 (structured_RNA) RNA: GGGAAGCAUCAACAUAGGUAUCCUUGGCGGUGUACGAAGUUUCAGCGAUUAUUGUAAGCAGGAUCCAUUCAAUAAUCGCUGAAGCUUCGUGCAC | 0.0775 | 1.05 | 2.04 | -0.657 |
| hsa-mir-4538 (structured_RNA) RNA: GGGAAGGUCAGGGGUUAAUGUGAUAACGGGUGUACGAAGUUUCAGCCUGAACUGGGCUGGGUUGAGCUGGGCUGGGCUGAGUUGAGGCUGAAGCUUCGUGCAC | 0.0724 | 1.78 | 3.13 | 4.18 |
| hsa-mir-5571 (structured_RNA) RNA: GGGAACAGAAAAGCCAUUAUGGAGUCAGGGUGUACGAAGUUUCAGCUCCCAGGAAAUUCACUUUAGGAAGUCCUAGGAGCUGAAGCUUCGUGCAC | 0.0795 | -1.01 | 0.389 | -0.266 |
| PARIS_ID25 (structured_RNA) RNA: GGGAAAGGAGCCAGUGAUAUGUUAGCCUGGUGUACGAAGUUUCAGCAAAUCUUAAUAUUUAUGUAUGUAUUUUAUUAUUACCGGUUUGCUGAAGCUUCGUGCAC | 0.0726 | 1.02 | 0.393 | 0.61 |
| hsa-mir-4751 (structured_RNA) RNA: GGGAAAGCAGAUAACCCCGCGUCCUCUUGGUGUACGAAGUUUCAGCAGGGCAGGGGUGUGGCUGCUGAAGCUUCGUGCAC | 0.0705 | 0.117 | 1.1 | 1.17 |
| hsa-mir-4418 (structured_RNA) RNA: GGGAACCGAAAGUUUCGGACCCAGGGAUGGUGUACGAAGUUUCAGCGGUGGUUGUGGGAGUCACUGCUGAAGCUUCGUGCAC | 0.069 | -0.366 | -0.198 | 1.42 |
| hsa-mir-542 (structured_RNA) RNA: GGGAGAAAACGAAAUUUGUCAGCAAGCAGGUGUACGAAGUUUCAGCCACGAGAUACCAGUGUGCACUUGUGGCUGAAGCUUCGUGCAC | 0.0776 | 1.13 | 1.49 | -0.164 |
| hsa-mir-1246 (structured_RNA) RNA: GGGAACUCUACUCGGGCGACAUCACUACGGUGUACGAAGUUUCAGCCAGGAGUGGACACCUGGCUGAAGCUUCGUGCAC | 0.0668 | -1.2 | 0.242 | -1.25 |
| hsa-mir-6770-1_6770-3_6770-2 (structured_RNA) RNA: GGGAACAUACGAAGUAGUUAGUCGCAAUGGUGUACGAAGUUUCAGCACGUGACCUCCUGGGCCUGGCUGAAGCUUCGUGCAC | 0.0842 | 0.0835 | 0.646 | -1.46 |
| hsa-mir-7156 (structured_RNA) RNA: GGGCAGGACGCUAUGUCCGUGUAACUCCGGUGUACGAAGUUUCAGCCAGAGUGUGCAUGGCAGGCUGCUGAAGCUUCGUGCAC | 0.0687 | -0.126 | 0.0315 | -0.465 |
| hsa-mir-3130-1 (structured_RNA) RNA: GGGAGAUGCUGAUAUUGAUACAGUGCCCGGUGUACGAAGUUUCAGCCAGCCUGUUGUCAAGGCUGGCUGAAGCUUCGUGCAC | 0.0823 | -0.659 | -0.681 | -0.369 |
